Biological target: SHP2 (Homo sapiens (Human), UniProt Q06124)
Assay: SHP2 allosteric inhibition assay (DiFMUP prompt fluorescence)
Format: biochemical
Conditions: 0.5 nM SHP2 activated with 0.5 μM peptide IRS1_pY1172(dPEG8)pY1222; substrate DiFMUP; 25° C.

Amino acid sequences for entries named in this document (tags omitted).
UniProt Q06124, whole entry: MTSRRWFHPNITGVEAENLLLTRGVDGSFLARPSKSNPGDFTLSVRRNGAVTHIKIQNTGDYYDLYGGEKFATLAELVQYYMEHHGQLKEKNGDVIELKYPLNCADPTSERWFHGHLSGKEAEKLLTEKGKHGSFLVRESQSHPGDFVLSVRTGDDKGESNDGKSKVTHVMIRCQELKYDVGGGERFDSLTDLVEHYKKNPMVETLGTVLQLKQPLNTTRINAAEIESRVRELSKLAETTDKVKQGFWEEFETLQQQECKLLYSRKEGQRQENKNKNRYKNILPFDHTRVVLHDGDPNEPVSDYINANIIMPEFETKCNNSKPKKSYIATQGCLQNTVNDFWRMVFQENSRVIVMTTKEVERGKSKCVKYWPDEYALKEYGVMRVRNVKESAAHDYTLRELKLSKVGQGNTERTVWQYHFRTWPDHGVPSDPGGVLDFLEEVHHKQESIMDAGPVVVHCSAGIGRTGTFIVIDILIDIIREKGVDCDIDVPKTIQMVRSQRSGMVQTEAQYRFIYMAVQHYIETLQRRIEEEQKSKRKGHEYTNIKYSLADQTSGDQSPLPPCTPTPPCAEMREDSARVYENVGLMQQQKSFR

Question: With C[C@@]1(CN)CCN(c2cnc(Sc3cccc(Cl)c3Cl)c(N)n2)C[C@@H]1O (relative stereo) [27a] as the molecule, how does the IC50 read?
Answer: 76 nM

Question: For C[C@@]1(CN)CCN(c2cnc(Sc3cccnc3C(F)(F)F)c(N)n2)C[C@H]1O (relative stereo) [31a], which IC50 is on record?
Answer: 781 nM

Question: CC(N)C1(C)CCN(c2cnc(Sc3cccnc3C(F)(F)F)c(N)n2)CC1 (racemic) [41 P1] was tested. Which IC50 did it give?
Answer: 97 nM

Reference: patent US10301278B2, “1-(triazin-3-yl/pyridazin-3-yl)-piper(-azine)idine derivatives and compositions therefor for inhibiting the activity of SHP2” (NOVARTIS AG, priority 2014, dated 2019)
